The values that follow are results of earlier work, collected in US20090088466A1, “OPIOID RECEPTOR LIGANDS” (priority 2005, published 2009).

Sequences of proteins named here, by UniProt entry; tags and fusion partners are left off. A change or cut given only in a name is not applied to a line headed by its entry.
UniProt P41145: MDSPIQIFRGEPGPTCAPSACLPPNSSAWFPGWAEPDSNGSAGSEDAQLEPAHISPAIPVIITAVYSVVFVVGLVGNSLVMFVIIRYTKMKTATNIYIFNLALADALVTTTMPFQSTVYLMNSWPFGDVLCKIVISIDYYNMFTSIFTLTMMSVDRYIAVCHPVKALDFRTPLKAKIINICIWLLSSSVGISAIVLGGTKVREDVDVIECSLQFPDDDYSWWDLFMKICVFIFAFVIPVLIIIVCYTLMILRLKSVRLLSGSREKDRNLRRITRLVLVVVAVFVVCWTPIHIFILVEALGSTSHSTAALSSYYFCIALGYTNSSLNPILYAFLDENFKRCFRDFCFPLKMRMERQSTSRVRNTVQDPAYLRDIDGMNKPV

In the data set the target is κ receptors (Homo sapiens, UniProt P41145). Particulars: cited from earlier work.

As to `COC(=O)[C@@H]1C[C@H](OC(C)=O)C(=O)[C@H]2[C@@]1(C)CC[C@H]1C(=O)O[C@H](c3ccoc3)C[C@]21C` [Salvinorin A], the “selectivity for κ receptors over μ and δ opioid receptors” value was “very selective”.
